Reference: ChEMBL document CHEMBL5625255, “Discovery of a novel series of potent carbonic anhydrase inhibitors with selective affinity for μ Opioid receptor for Safer and long-lasting analgesia” (2023)

Sequences of proteins named here, by UniProt entry; tags and fusion partners are left off. Residues count along the entry.
UniProt Q9ULX7, 16-337 limits assumed: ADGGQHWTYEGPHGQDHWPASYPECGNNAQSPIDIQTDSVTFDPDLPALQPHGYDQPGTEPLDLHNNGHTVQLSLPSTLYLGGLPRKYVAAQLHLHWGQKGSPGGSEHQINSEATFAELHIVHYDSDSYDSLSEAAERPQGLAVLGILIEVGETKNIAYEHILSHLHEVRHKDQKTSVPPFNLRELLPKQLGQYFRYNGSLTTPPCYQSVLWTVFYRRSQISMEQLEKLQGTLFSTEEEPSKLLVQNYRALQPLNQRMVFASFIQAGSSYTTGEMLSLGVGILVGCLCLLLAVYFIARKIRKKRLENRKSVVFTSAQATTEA
UniProt P22748, 19-284 limits assumed: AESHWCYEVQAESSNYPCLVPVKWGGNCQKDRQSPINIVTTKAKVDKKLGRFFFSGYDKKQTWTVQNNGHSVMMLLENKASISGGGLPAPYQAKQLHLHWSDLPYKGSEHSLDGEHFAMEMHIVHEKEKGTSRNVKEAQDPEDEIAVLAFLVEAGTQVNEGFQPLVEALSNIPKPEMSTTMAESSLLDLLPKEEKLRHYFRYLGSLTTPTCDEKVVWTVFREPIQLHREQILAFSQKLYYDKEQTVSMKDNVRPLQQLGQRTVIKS
UniProt O43570, 25-354 limits assumed: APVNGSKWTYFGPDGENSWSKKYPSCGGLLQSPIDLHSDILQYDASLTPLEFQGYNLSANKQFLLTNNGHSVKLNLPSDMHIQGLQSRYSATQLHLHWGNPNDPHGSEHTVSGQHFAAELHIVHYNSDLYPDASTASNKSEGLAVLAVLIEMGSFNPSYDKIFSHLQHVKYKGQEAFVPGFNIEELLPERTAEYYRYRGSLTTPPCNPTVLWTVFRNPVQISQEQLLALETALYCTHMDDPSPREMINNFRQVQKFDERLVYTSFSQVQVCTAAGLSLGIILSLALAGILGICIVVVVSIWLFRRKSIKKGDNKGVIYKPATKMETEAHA
UniProt P43166, whole entry: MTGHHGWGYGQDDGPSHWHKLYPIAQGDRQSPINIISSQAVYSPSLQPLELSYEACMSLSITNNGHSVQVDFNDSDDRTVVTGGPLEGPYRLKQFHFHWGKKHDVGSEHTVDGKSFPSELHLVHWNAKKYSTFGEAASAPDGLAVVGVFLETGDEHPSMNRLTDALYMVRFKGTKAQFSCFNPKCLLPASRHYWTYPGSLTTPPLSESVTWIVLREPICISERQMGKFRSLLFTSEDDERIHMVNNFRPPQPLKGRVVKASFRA
UniProt P00915, 2-261 limits assumed: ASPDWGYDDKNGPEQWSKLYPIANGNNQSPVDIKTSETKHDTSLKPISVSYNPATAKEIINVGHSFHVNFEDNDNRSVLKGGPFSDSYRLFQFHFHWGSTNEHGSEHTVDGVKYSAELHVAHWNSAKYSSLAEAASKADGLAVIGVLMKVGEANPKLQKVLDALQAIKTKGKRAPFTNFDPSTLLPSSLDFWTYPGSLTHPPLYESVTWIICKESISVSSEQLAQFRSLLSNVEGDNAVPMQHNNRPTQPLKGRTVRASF
UniProt P35218, 39-305 limits assumed: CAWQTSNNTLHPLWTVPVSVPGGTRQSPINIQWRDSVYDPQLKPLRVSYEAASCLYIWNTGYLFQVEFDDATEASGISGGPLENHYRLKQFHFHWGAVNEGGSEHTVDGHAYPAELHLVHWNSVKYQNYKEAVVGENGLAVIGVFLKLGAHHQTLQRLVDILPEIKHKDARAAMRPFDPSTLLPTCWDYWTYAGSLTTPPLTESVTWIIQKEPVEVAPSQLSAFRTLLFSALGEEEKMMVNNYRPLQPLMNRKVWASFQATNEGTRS
UniProt Q8N1Q1, whole entry: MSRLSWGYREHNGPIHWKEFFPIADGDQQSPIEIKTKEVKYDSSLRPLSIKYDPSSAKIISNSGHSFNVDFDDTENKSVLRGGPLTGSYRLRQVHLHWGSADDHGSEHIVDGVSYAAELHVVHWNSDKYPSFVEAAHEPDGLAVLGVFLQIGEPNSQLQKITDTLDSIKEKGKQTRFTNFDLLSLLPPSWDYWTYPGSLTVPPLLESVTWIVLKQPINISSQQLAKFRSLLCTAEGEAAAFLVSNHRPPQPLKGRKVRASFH

Tests used:
Carbonic anhydrase 14 = Carbonic anhydrase 14 (Homo sapiens, UniProt Q9ULX7); assay: Inhibition of recombinant human CA-XIV incubated for 15 mins by stop-flow method
Carbonic anhydrase 4 = Carbonic anhydrase 4 (Homo sapiens, UniProt P22748); assay: Inhibition of recombinant human CA-IV incubated for 15 mins by stop-flow method
Carbonic anhydrase 12 = Carbonic anhydrase 12 (Homo sapiens, UniProt O43570); assay: Inhibition of recombinant human CA-XII incubated for 15 mins by stop-flow method
Carbonic anhydrase 2 = Carbonic anhydrase 2 (Homo sapiens, UniProt P00918); assay: Inhibition of recombinant human CA-II incubated for 15 mins by stop-flow method
Carbonic anhydrase 7 = Carbonic anhydrase 7 (Homo sapiens, UniProt P43166); assay: Inhibition of recombinant human CA-VII incubated for 15 mins by stop-flow method
Carbonic anhydrase 1 = Carbonic anhydrase 1 (Homo sapiens, UniProt P00915); assay: Inhibition of recombinant human CA-I incubated for 15 mins by stop-flow method
[1] = target: Carbonic anhydrase 5A, mitochondrial (Homo sapiens, UniProt P35218); assay: Inhibition of recombinant human CA-VA incubated for 15 mins by stop-flow method
Carbonic anhydrase 9 = Carbonic anhydrase 9 (Homo sapiens, UniProt Q16790); assay: Inhibition of recombinant human CA-IX incubated for 15 mins by stop-flow method
Carbonic anhydrase 13 = Carbonic anhydrase 13 (Homo sapiens, UniProt Q8N1Q1); assay: Inhibition of recombinant human CA-XIII incubated for 15 mins by stop-flow method

Row | SMILES | Ki (Carbonic anhydrase 14) [µM] | Ki (Carbonic anhydrase 4) [µM] | Ki (Carbonic anhydrase 12) [µM] | Ki (Carbonic anhydrase 2) [µM] | Ki (Carbonic anhydrase 7) [µM] | Ki (Carbonic anhydrase 1) [µM] | Ki [1] [µM] | Ki (Carbonic anhydrase 9) [µM] | Ki (Carbonic anhydrase 13) [µM]
1 | NS(=O)(=O)c1ccc(CCN2CCC(Nc3ccc4ccccc4c3)CC2)cc1 | 0.253 | 9.21 |  |  |  |  |  |  | 
2 | NS(=O)(=O)c1ccc(NC(=O)NCC2(Nc3ccccc3)CCN(CCc3ccccc3)CC2)cc1 |  |  | 0.0333 | 0.033 | 0.0242 | 0.452 | 0.796 |  | 
3 | NC(=O)C1(Nc2ccccc2)CCN(CCc2ccc(S(N)(=O)=O)cc2)CC1 | 0.0741 |  |  |  |  | 0.0759 |  |  | 
4 | Cc1ccc(NC2(C#N)CCN(CCc3ccc(S(N)(=O)=O)cc3)CC2)cc1 |  |  |  |  |  | 0.0603 | 0.261 | 0.0362 | 
5 | NS(=O)(=O)c1ccc(NC(=S)NCC2(Nc3ccccc3)CCN(CCc3ccccc3)CC2)cc1 | 0.0553 | 9.18 | 0.0148 | 0.0085 | 0.0336 | 0.291 | 0.719 | 0.0189 | 0.0828
6 | NS(=O)(=O)c1ccc(C(=O)NCC2(Nc3ccccc3)CCN(CCc3ccccc3)CC2)cc1 |  |  |  |  | 0.0231 |  | 0.0792 |  | 0.0707

Some compounds may have been tested in ways that are not shown here.
